Results taken from ChEMBL document CHEMBL5726342, “NMDA receptor modulators and uses related thereto” (2017).

Test: Inhibition Assay: Two-electrode voltage-clamp recordings were made from Xenopus laevis oocytes expressing recombinant rat GluN1/GluN2A, GluN1/GluN2B, GluN1/GluN2C, GluN1/GluN2D, GluA1, or GluK2 receptors following injection of 5-10 ng of cRNA synthesized according to manufacturers' protocols (Ambin, mMessage, mMachine). cDNAs used were rat GluN1-1a (GenBank accession numbers U11418 and U08261; hereafter GluN1), GluN2A (D13211), GluN2B (U11419), GluN2C (M91563), GluN2D (L31611), GluA1 (X17184), GluK2 (Z11548). The current under voltage-clamp was recorded during perfusion with recording solution containing (in mM) 90 NaCl, 1.0 KCl, 0.5 BaCl2, 0.005 EDTA, and 10 HEPES at pH 7.4 (23° C.). Glass micropipettes had resistances of 0.3-1.0 MS2 and were filled with 3.0 M KCl. The membrane potential was clamped at −40 mV during the experiment. Recordings were digitized at 10 Hz and analyzed off line. 20 mM stock solutions of test compounds in 100% DMSO were made and diluted to obtain the final concentration; final DMSO content was 0.05-0.5% (vol/vol). Oocytes expressing GluK2 homomeric receptors were first treated with 10 μM concanavalin A (10 minutes). NMDA receptor responses were obtained by challenging oocytes with 100 μM glutamate plus 30 μM glycine; GluA1 and GluK2 receptors responses were recorded during application of 100 μM glutamate. […]
Assay type: cell-based

- IC50: 24 µM
SMILES: CC(=O)C1=C(O)C(=O)N(CCc2c[nH]c3ccccc23)C1c1ccc(C)cc1 (stereo unspecified)
